The target in assay [1] is T1, 4-hydroxyphenylpyruvate dioxygenase (Rattus norvegicus, UniProt P32755). Description: Inhibition of Wistar rat liver HPPD using 4-Hydroxyphenylpyruvate as substrate assessed as reduction in oxygen consumption preincubated for 3 mins followed by substrate addition.
The target of assay [2] is T1, 4-hydroxyphenylpyruvate dioxygenase. Description: Inhibition of Wistar rat liver cytosol HPPD using HPP as substrate assessed as reduction in O2 consumption.

Protein sequences, listed by entry. Tags and fused reporters are not part of them. Lines headed by an entry give the natural chain unless they say otherwise; changes in a name come on top.
UniProt P32755: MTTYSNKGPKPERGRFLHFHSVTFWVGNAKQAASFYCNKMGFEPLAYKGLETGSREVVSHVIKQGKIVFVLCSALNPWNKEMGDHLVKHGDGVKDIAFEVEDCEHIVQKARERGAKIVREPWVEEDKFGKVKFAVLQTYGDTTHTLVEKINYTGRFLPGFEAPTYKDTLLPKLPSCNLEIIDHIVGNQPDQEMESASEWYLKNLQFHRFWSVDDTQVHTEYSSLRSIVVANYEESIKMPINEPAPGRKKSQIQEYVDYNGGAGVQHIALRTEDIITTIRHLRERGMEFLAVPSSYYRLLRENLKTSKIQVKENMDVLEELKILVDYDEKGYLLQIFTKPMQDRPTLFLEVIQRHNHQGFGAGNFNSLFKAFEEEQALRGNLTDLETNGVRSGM

In the case of `O=C1CCCC(=O)C1C(=O)c1ccc(C(F)(F)F)cc1[N+](=O)[O-]` [NITISINONE], the IC50 in assay [1] and in assay [2] was 40 nM each time.

For the origin of these results see ChEMBL document CHEMBL4049382, “4-Hydroxyphenylpyruvate Dioxygenase and Its Inhibition in Plants and Animals: Small Molecules as Herbicides and Agents for the Treatment of Human Inherited Diseases” (J Med Chem, 2017).
